The text below walks through data of article PMC5694482 (Frontiers in Pharmacology, 2017).

The chains behind the UniProt entries cited, without tags or fusion partners. Where a name states a change or a piece, a line headed by the entry shows the natural chain unless it says otherwise.
UniProt Q9Y5N1, whole entry, species assumed: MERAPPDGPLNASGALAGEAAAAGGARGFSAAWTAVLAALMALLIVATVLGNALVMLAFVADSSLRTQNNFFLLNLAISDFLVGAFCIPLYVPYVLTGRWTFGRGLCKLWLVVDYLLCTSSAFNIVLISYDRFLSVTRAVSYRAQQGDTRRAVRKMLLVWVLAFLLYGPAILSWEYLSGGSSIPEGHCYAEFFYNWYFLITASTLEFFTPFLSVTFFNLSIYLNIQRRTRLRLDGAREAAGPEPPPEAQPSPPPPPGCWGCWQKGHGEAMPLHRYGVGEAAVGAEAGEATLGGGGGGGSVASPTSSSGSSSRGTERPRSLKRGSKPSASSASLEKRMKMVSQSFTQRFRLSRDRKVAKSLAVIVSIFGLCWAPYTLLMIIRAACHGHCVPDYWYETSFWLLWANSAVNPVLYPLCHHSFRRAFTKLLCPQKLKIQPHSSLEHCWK

In this experiment the target is H3R (Homo sapiens, UniProt Q9Y5N1). As to conditions: H3R pKi ± SEM, displacement of 1.15 nM [3H]-histamine, HEK293T cells, Cheng-Prusoff.

The term Ki denotes the dissociation constant of the complex between target and ligand, obtained from inhibition or displacement. A high value points to lower affinity.

Consider `NC(=NCc1ccc(Cl)cc1)SCCCc1cnc[nH]1` [Clobenpropit, reference compound], for which the affinity, expressed as Ki, was 562 pM.
